Laboratory results from ChEMBL document CHEMBL3112547, “Surface plasmon resonance using the catalytic domain of soluble guanylate cyclase allows the detection of enzyme activators” (Bioorg Med Chem Lett, 2014).

Protein sequences, listed by entry. Tags and fused reporters are not part of them. Lines headed by an entry give the natural chain unless they say otherwise; changes in a name come on top.
UniProt Q02153: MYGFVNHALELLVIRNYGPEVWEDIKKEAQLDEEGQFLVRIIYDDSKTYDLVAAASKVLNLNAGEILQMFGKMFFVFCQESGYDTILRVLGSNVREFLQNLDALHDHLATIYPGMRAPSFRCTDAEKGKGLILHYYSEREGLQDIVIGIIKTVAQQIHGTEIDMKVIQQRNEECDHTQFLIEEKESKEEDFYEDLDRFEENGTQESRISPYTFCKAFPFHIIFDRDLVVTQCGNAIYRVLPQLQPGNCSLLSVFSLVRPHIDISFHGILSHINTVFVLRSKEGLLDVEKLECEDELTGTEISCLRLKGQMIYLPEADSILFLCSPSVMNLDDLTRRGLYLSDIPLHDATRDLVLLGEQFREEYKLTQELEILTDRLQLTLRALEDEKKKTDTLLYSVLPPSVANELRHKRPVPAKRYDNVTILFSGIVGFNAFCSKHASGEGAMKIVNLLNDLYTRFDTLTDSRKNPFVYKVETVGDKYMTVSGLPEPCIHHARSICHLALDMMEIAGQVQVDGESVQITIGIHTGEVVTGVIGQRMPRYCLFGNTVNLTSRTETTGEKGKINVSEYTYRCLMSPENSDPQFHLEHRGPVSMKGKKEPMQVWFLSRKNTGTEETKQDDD
UniProt Q02108: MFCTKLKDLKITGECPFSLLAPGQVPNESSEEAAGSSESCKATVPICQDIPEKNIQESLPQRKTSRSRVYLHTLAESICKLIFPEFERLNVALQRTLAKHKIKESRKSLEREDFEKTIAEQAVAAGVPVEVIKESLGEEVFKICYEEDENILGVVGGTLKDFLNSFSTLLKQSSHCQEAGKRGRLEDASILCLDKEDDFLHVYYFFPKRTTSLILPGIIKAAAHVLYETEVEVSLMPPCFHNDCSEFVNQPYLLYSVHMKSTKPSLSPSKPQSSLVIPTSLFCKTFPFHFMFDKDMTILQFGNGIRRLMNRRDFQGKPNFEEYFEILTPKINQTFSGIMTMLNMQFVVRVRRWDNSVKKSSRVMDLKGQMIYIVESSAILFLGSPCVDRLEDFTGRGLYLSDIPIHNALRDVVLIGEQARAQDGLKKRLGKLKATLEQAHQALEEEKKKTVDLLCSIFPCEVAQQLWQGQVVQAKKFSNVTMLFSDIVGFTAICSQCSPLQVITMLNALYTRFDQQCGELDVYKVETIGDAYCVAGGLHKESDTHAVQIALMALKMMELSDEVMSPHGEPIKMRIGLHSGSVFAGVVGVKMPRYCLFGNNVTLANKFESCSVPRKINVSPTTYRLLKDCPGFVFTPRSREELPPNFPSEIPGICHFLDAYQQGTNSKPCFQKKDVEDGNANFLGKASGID

Biological target: Soluble guanylate cyclase alpha1/beta1 complex (Homo sapiens) (UniProt Q02153+Q02108)
Assay: Binding affinity to sGC subunit alpha-1/beta-1 catalytic domain (unknown origin) assessed as additive binding at 100 uM after 30 seconds by SPR analysis in presence of GTP
Type: protein-complex assay

- Activity: Active
SMILES: OCc1ccc(-c2nn(Cc3ccccc3)c3ccccc23)o1

Activity calls are given as the source filed them. No cut-off for these calls is given here.
